Laboratory results as given in patent US12281098B2, “Five-membered-fused six-membered compound, preparation method, pharmaceutical composition and use” (HANGZHOU POLYMED BIOPHARMACEUTICALS, INC., priority 2021, dated 2025).
Read-outs that look alike come from different tables or passages of the source.

Sequences of proteins named here, by UniProt entry; tags and fusion partners are left off.
UniProt Q9NWZ3, whole entry: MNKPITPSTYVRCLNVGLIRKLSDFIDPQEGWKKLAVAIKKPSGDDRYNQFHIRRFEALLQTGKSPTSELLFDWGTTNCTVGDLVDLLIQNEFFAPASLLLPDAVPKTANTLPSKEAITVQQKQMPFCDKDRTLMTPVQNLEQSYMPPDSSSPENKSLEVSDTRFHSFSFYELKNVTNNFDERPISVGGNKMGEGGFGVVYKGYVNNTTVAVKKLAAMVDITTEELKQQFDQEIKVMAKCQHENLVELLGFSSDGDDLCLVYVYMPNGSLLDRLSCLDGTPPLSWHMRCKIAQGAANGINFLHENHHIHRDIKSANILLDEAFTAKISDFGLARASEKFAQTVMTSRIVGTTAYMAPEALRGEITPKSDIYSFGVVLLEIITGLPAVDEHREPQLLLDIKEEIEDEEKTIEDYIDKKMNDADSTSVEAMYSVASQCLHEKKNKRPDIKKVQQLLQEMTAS

What was measured:
IRAK4 kinase = IRAK4 kinase (Homo sapiens, UniProt Q9NWZ3); test: Compound inhibition of IRAK4 kinase activity (fluorescence microfluidic mobility shift assay); conditions: read-out: IRAK4 IC50, 10 μM ATP, 6 nM IRAK4 kinase
Protocol: Based on the experimental method of fluorescence microfluidic mobility shift assay, the IC50 value of the compound for competitive binding of ATP to IRAK4 kinase was determined. The initial detection concentration of the compound was 10 μM, which was 4-fold serially diluted to 0.38 nM and assayed in duplicate. In this case, commercially available staurosporine was the standard control for the assay.
1) IRAK4 kinase was dissolved in kinase buffer (50 mM HEPES pH 7.5, 10 mM MgCl2, 2 mM DDT, and 0.01% Brij-35) at a final concentration of 6 nM.
2) The substrate peptide FAM-P8 and ATP were dissolved in the above kinase buffer, and the final concentrations of the substrate peptide FAM-P8 and ATP for IRAK4 were 3 μM and 10 μM, respectively.
3) Compound dilution: The compound was first diluted to 50 μM, and then 4-fold serially diluted with DMSO. In this case, the solution without compound and kinase served as the blank control, corresponding to the “minimum value” shown below; the solution without compound but containing kinase, adenosine 5′-triphosphate disodium salt hydrate, DMSO, and the buffer served as the positive control, corresponding to the “maximum value” shown below.
4) Kinase reaction and termination: 10 μL of the kinase buffer was added to a 384-well plate containing 5 μL of the compound to be tested, and the mixture was incubated at room temperature for 10 minutes; another 10 μL of buffer containing the substrate peptide and adenosine 5′-triphosphate disodium salt hydrate was added to the 384-well plate, and after incubation at 28° C. for 1 hour, 25 μL of termination solution (100 mM HEPES pH 7.5, 50 mM EDTA, 0.2% Coating Reagent #3, and 0.015% Brij-35) was added to each well to terminate the reaction.
5) Data reading: CaliperEZ Reader II instrument was used to read the conversion rate data. Setting conditions: downstream voltage as −500 V, upstream voltage as −2250 V, base pressure as −0.5 PSI, and screening pressure as −1.2 PSI.
6) Data calculation: the conversion rate data was copied from CaliperEZ Reader II, and the conversion rate was converted into inhibition rate data. The calculation formula is as follows: Inhibition percentage (%)=(maximum value−conversion rate)/(maximum value−minimum value)*100%
IC50 values were fitted with XLFit excel add-in version 5.4.0.8.

THP-1 cells = test: LPS-stimulated cytokine (TNFα) release in THP-1; conditions: read-out: Inhibition IC50 (nM) of cytokines (TNFα) against LPS-stimulated inflammatory responses in THP-1 cells, LPS 100 ng/mL, 5 hours, TNF-α ELISA
Protocol: THP-1 cells were cultured in suspension in RPMI 1640 complete medium (containing 10% serum, 1% penicillin-streptomycin, and 55 μM β-mercaptoethanol). THP-1 cells were collected, centrifuged at 350×g at room temperature to discard the supernatant, and resuspended in RPMI 1640 complete medium to a concentration of 2×10^6 cells per mL. THP-1 cells were spread into a 96-well plate at a concentration of 2×10^5 cells per well, and different concentrations of the compound to be tested were added thereto. The plate was incubated in a 37° C. cell culture incubator with 5% CO2 for 60 minutes. 50 μL of LPS at a final concentration of 100 ng/mL was added to a 96-well plate, and incubated in a 37° C. cell culture incubator for 5 hours. The cell culture plate was then taken out from the incubator, and centrifuged at 350×g at low temperature for 5 minutes to collect 150 μL of the supernatant. Referring to the instructions in the Human TNF-α Duoset ELISA Kit, the level of TNF-α in the cell culture supernatant was detected.
Data on the inhibitory activity of cytokines (TNFα) against LPS-stimulated inflammatory responses in THP-1 cells are shown in Tables 3 and 4.

[1] = biological target: IRAK4 protein in THP-1 cells (Homo sapiens, UniProt Q9NWZ3); test: IRAK4 protein degradation in THP-1 induced by PROTAC (Western Blot); conditions: GAPDH internal reference
Protocol: 3.1. Based on the experimental method of immunoblot, i.e., Western Blot, THP-1 cell samples processed by gel electrophoresis were stained with specific antibodies, and the degradation activity of the compounds on the IRAK4 protein in THP-1 cells was determined by analyzing the position of the staining and the depth of the staining. The detection concentrations of the compounds were 0 μM, 0.3 μM, 1 μM, and 3 μM, and the compounds were used to treat the cells for 8 hours, 16 hours, 24 hours, and 48 hours. In this case, glyceraldehyde-3-phosphate dehydrogenase (GAPDH) was the internal reference protein for the assay.
THP-1 cells were spread into a 6-well plate at a density of 1.5×10^6 cells per mL, and incubated in a 37° C. cell culture incubator with 5% CO2 for 2 hours. The compound was diluted with DMSO to 0.6 mM, 0.2 mM, and 0.06 mM, respectively. 10 μL of compound solution was added to the corresponding wells, and the plate was incubated in the incubator for 16 hours, 24 hours, and 48 hours, respectively. The drug-treated THP-1 cells were collected from the wells, added with 120 μL of RIPA lysis buffer containing protease inhibitor, phosphatase inhibitor cocktail 2, and phosphatase inhibitor cocktail 3, and lysed on wet ice for 30 minutes. The cell lysate was then centrifuged at low temperature and high speed for 5 minutes, and the supernatant was collected. Referring to the instructions in the Pierce™ BCA Protein Assay Kit, the cell samples were tested for protein concentration.
The samples were adjusted to the same concentration using lysis buffer and NuPAGE® LDS sample buffer containing 1 M DTT. The samples were heated at 95° C. for 5 minutes and centrifuged at low temperature and high speed. 20 μL of prepared protein sample and 4 μL of PageRuler Prestained Protein Ladder were added to the gel wells. The mixture was electrophoresed at a voltage of 80 V for 0.5 hours, and then electrophoresed for another 1.5 hours after the voltage was adjusted to 120 V. The gel was removed and proteins in the gel were transferred to IBlot™ 2 Transfer Stack at a voltage of 20V. After successful membrane transfer, the bands were cut out at 65 kDa to 40 kDa and 40 kDa to 30 kDa, respectively. The membrane was blocked with 5% non-fat milk at room temperature for 1 hour. The membrane was washed three times with 1×TBST, and incubated with IRAK4 antibody working solution at 4° C. overnight. The IRAK4 antibody working solution was discarded, and the membrane was washed three times with 1×TBST. After the corresponding membrane was incubated with Goat Anti-Rabbit IgG H&L (HRP) working solution and Goat Anti-Mouse IgG H&L (HRP) working solution at room temperature for 1 hour, the antibody working solutions were discarded, and the membrane was washed three times with 1×TBST. Referring to the instructions in the SuperSignal™ West Femto Maximum Sensitivity Substrate Kit, the reagents in the kit were mixed in equal volume proportions to prepare a luminescent mixture, and the membrane was incubated for 1 minute and removed for exposure.
WB assay: The results 24 hours after administration at 1 μM were divided into estimated <25%, <50%, <75%, and <100%.

Row | SMILES | IC50 (IRAK4 kinase; Table 2) [nM] | IC50 (THP-1 cells; Table 4) [nM] | IC50 (IRAK4 kinase; Table 1) [nM] | Western Blot results 24 hours after administration at a drug concentration of 1 μM ([1]; Table 5, estimated bins) [%] | Western Blot results 24 hours after administration at a drug concentration of 1 μM ([1]; Table 6, estimated bins) [%] | IC50 (THP-1 cells; Table 3) [nM]
1 | COc1cc2c(cc1NC(=O)c1cccc(C(F)(F)F)n1)CN(CCC(C)(C)C(=O)N1CCC3(CC1)CCN(c1cnc(C(=O)N[C@H](C(=O)N4C[C@H](O)C[C@H]4C(=O)N[C@@H](C)c4ccc(-c5scnc5C)cc4)C(C)(C)C)cn1)CC3)C2=O | < 100 | 1000 to 10000 | – | – | – | –
2 | O=C1CCC(N2C(=O)c3cccc(NCCOCCOCCN4Cc5cc(NC(=O)c6cccc(C(F)(F)F)n6)c(Br)cc5C4=O)c3C2=O)C(=O)N1 (stereo not shown) | 1000 to 10000 | – | 1000 to 10000 | – | – | –
3 | COc1cc2nn(CCN3CCN(CC(=O)N4CCC5(CCC(C(=O)N[C@H](C(=O)N6C[C@H](O)C[C@H]6C(=O)N[C@@H](C)c6ccc(-c7scnc7C)cc6)C(C)(C)C)CC5)CC4)C3=O)cc2cc1NC(=O)c1cccc(C(F)(F)F)n1 | < 100 | 1000 to 10000 | < 100 | – | – | –
4 | COc1cc2c(cc1NC(=O)c1cccc(C(F)(F)F)n1)CN(CCC(C)(C)C(=O)N1CC3(CC(CC(=O)N[C@H](C(=O)N4C[C@H](O)C[C@H]4C(=O)N[C@@H](C)c4ccc(-c5scnc5C)cc4)C(C)(C)C)C3)C1)C2=O | 100 to 1000 | 100 to 1000 | 100 to 1000 | <25 | <25 | 100 to 1000
5 | COc1cc2nn(CCN3CCC(OCC#Cc4cccc5c4C(=O)N(C4CCC(=O)NC4=O)C5=O)CC3)cc2cc1NC(=O)c1cccc(C(F)(F)F)n1 (stereo not shown) | < 100 | – | – | – | <25 | –
6 | COc1cc2c(cc1NC(=O)c1cccc(C(F)(F)F)n1)CN(CCN1CCN(CC(=O)N3CC4(CC(N[C@H](C(=O)N5C[C@H](O)C[C@H]5C(=O)N[C@@H](C)c5ccc(-c6scnc6C)cc5)C(C)(C)C)C4)C3)CC1)C2=O | 100 to 1000 | – | – | – | <25 | –
7 | COc1cc2nn(CCN3CCN(CC(=O)N4CCC5(CC4)CN(c4cccc6c4C(=O)N(C4CCC(=O)NC4=O)C6=O)C5)C3=O)cc2cc1NC(=O)c1cccc(C(F)(F)F)n1 (stereo not shown) | 100 to 1000 | 1000 to 10000 | 100 to 1000 | – | – | 1000 to 10000

Next, values leading:

Row | IC50 (IRAK4 kinase; Table 2) [nM] | IC50 (THP-1 cells; Table 4) [nM] | IC50 (IRAK4 kinase; Table 1) [nM] | Western Blot results 24 hours after administration at a drug concentration of 1 μM ([1]; Table 5, estimated bins) [%] | Western Blot results 24 hours after administration at a drug concentration of 1 μM ([1]; Table 6, estimated bins) [%] | IC50 (THP-1 cells; Table 3) [nM] | SMILES
8 | < 100 | – | – | – | <25 | – | COc1cc2nn(CCN3CCN(CC(=O)N4CCC5(CC4)CC(N[C@H](C(=O)N4C[C@H](O)C[C@H]4C(=O)N[C@@H](C)c4ccc(-c6scnc6C)cc4)C(C)(C)C)C5)C3=O)cc2cc1NC(=O)c1cccc(C(F)(F)F)n1
9 | < 100 | 1000 to 10000 | < 100 | – | – | 1000 to 10000 | COc1cc2nn(CCN3CCN(CC(=O)N4CC5(CC(CC(=O)N[C@H](C(=O)N6C[C@H](O)C[C@H]6C(=O)N[C@@H](C)c6ccc(-c7scnc7C)cc6)C(C)(C)C)C5)C4)C3=O)cc2cc1NC(=O)c1cccc(C(F)(F)F)n1
10 | 100 to 1000 | 1000 to 10000 | 100 to 1000 | – | – | 1000 to 10000 | COc1cc2nn(CCN3CCN(CC(=O)N4CCC5(CC4)CC(C(=O)N[C@H](C(=O)N4C[C@H](O)C[C@H]4C(=O)N[C@@H](C)c4ccc(-c6scnc6C)cc4)C(C)(C)C)C5)C3=O)cc2cc1NC(=O)c1cccc(C(F)(F)F)n1
